Values quoted from earlier work, collected in patent US20160263110A1 (priority 2013, published 2016).

System: ALS patients
Settings: humans; cited from earlier work

Structure (SMILES): Nc1nc2ccc(OC(F)(F)F)cc2s1 [riluzole, 6-(trifluoromethoxy)benzothiazol-2-amine]
- effect on survival in ALS: slight prolongation of survival; also recorded: delays death by only few months; also recorded: modest effect on survival

Entries after “also recorded” stand apart in the source; their conditions may differ.
